Test results from PubChem BioAssay (Tox21).
“And” between values parts separate entries of the source, which are not always exact repeats. Equal entries are not always repeated. Only a part is listed here, and it is no random draw. Records with an inconclusive call do not appear. The source made the active and inactive calls. Unless noted, the call rests on the fitted dose curve; in most records, active means well fitted curve in the direction sought with a large enough effect in the repeat runs; inconclusive means weak or mixed curves; inactive means no such curve, though single readings can be large; an effect the other way counts as inactive or inconclusive.

Chains of the proteins cited; added tags and fusions are not shown.
UniProt P10275, whole entry: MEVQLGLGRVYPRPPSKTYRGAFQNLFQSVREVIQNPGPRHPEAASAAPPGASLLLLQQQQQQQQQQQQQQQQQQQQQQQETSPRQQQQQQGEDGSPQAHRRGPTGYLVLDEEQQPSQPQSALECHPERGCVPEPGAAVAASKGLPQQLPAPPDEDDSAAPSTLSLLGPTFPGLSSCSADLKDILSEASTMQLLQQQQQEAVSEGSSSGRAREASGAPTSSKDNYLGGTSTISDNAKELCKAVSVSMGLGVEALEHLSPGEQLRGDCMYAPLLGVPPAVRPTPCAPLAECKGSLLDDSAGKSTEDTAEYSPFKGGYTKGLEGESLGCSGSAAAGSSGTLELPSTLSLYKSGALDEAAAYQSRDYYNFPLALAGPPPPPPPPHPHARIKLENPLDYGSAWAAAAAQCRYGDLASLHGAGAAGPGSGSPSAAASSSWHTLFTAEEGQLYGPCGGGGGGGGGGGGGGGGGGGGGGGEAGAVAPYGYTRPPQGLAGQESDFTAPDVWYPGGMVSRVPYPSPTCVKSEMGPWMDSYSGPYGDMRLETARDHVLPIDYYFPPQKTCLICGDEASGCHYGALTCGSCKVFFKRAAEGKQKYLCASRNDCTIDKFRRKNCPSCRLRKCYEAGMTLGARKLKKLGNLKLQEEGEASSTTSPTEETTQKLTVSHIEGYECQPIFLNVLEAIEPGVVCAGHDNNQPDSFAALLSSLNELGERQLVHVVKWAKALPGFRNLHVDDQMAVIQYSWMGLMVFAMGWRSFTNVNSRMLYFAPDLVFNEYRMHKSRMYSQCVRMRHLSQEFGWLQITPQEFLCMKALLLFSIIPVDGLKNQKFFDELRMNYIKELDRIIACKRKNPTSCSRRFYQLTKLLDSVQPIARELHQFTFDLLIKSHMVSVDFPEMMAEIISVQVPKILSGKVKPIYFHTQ
UniProt P03372, whole entry: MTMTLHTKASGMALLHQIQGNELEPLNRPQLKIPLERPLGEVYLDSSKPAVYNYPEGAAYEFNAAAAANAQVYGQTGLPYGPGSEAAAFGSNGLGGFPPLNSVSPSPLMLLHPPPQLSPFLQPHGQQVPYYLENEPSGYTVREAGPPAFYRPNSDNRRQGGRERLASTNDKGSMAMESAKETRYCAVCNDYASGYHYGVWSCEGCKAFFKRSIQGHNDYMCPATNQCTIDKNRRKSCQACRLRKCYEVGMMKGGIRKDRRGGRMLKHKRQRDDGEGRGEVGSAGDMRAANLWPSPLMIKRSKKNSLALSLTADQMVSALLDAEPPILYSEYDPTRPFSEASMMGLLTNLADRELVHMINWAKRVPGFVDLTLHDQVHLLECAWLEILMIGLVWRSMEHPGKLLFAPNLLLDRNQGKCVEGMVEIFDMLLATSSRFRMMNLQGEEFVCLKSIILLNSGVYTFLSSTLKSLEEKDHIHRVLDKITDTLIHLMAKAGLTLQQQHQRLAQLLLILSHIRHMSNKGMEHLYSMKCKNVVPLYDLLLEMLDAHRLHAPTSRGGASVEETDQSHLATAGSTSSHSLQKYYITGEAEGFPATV

Legend:
[1] = qHTS RealTime-Glo MT Cell Viability Assay in HEK293 cells - 0 hour (AID 1224880); conditions: RealTime-Glo luminescence; at 76.8 µM (top of the series) unless noted; further: top concentration of the series differs between compounds; nearly all actives have a fitted effect of over 45% in size
In short: (§1)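 Luminescence readout at each listed time point; HEK293, 600 cells/well, RealTime-Glo MT reagent added with cells; compounds pinned (23 nL in DMSO) after 5 h at 37 C; continuous culture at 37 C.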

[2] = A CellTox Green Cytotoxicity Assay to monitor cytotoxicity in HEK293 cells - 32 hour (AID 1224881); conditions: CellTox Green fluorescence; at 76.8 µM (top of the series) unless noted; further: nearly all actives have a fitted effect of over 40% in size
In short: (§2)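 Read-out: fluorescence of a cell-impermeant cyanine dye staining DNA of dead cells, proportional to cytotoxicity. HEK293, 600 cells/well with reagent, compound (23 nL DMSO) added after 5 h; reads at 0, 8, 16, 24, 32, 40 h.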

[3] = A CellTox Green Cytotoxicity Assay to monitor cytotoxicity in HepG2 cells - 0 hour (AID 1224882); conditions: CellTox Green fluorescence; at 76.8 µM (top of the series); further: nearly all actives have a fitted effect of over 35% in size
In short: (§3)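 HepG2, 600 cells/well premixed w/ CellTox Green; 5 h settle, 37 C/5% CO2; pintool cpd add (DMSO); 37 C, 40 h; fluorescence read at 0, 8, 16, 24, 32, 40 h.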

[4] = A CellTox Green Cytotoxicity Assay to monitor cytotoxicity in HepG2 cells - 32 hour (AID 1224883); conditions: CellTox Green fluorescence; at 76.8 µM (top of the series); further: nearly all actives have a fitted effect of over 50% in size
In short: as §3

[5] = A CellTox Green Cytotoxicity Assay to monitor cytotoxicity in HEK293 cells - 8 hour (AID 1224884); conditions: CellTox Green fluorescence; at 76.8 µM (top of the series) unless noted; further: nearly all actives have a fitted effect of over 35% in size
In short: as §2

[6] = qHTS RealTime-Glo MT Cell Viability Assay in HepG2 cells - 16 hour (AID 1224885); conditions: RealTime-Glo luminescence; at 76.8 µM (top of the series) unless noted; further: nearly all actives have a fitted effect of over 50% in size
In short: (§4)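 Luminescence read-out: viable HepG2 cells reduce a prosubstrate to a NanoLuc substrate, giving a signal proportional to live cell number. Reads taken at 0, 8, 16, 24, 32 and 40 h of compound exposure at 37 C.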

[7] = qHTS RealTime-Glo MT Cell Viability Assay in HEK293 cells - 24 hour (AID 1224886); conditions: RealTime-Glo luminescence; at 76.8 µM (top of the series) unless noted; further: top concentration of the series differs between compounds; nearly all actives have a fitted effect of over 50% in size
In short: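 Nonlytic real-time viability readout: viable cells convert prosubstrate to NanoLuc substrate, giving luminescence proportional to live cell number. HEK293, 600 cells/well, compound added after 5 h, continuous culture at 37 C.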

[8] = qHTS RealTime-Glo MT Cell Viability Assay in HEK293 cells - 8 hour (AID 1224887); conditions: RealTime-Glo luminescence; at 76.8 µM (top of the series) unless noted; further: top concentration of the series differs between compounds; nearly all actives have a fitted effect of over 50% in size
In short: as §1

[9] = A CellTox Green Cytotoxicity Assay to monitor cytotoxicity in HEK293 cells - 16 hour (AID 1224888); conditions: CellTox Green fluorescence, stronger effect = higher value; at 76.8 µM (top of the series) unless noted; further: nearly all actives have a fitted effect of over 35% in size
In short: as §2

[10] = qHTS RealTime-Glo MT Cell Viability Assay in HepG2 cells - 0 hour (AID 1224889); conditions: RealTime-Glo luminescence; at 76.8 µM (top of the series) unless noted; further: nearly all actives have a fitted effect of over 50% in size
In short: as §4

[11] = A CellTox Green Cytotoxicity Assay to monitor cytotoxicity in HepG2 cells - 8 hour (AID 1224890); conditions: CellTox Green fluorescence; at 76.8 µM (top of the series); further: nearly all actives have a fitted effect of over 45% in size
In short: as §3

[12] = qHTS assay to identify small molecule antagonists of the estrogen receptor alpha (ER-alpha) signaling pathway using the BG1 cell line in the presence of 0.1 nM 17-beta-estradiol - cell viability counter screen (AID 1259241); conditions: VM7Luc4E2 (BG1) viability, CellTiter-Fluor protease, 22 h, 0.1 nM estradiol agonist added; at 92.4 µM (top of the series) unless noted; further: nearly all actives have a fitted effect of over 40% in size
In short: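 Estradiol-stimulated (0.1 nM) VM7Luc4E2 cells exposed to compounds 22 hr; viability measured by fluorescence of cleaved CellTiter-Fluor substrate after 30 min.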

[13] = qHTS assay to identify small molecule antagonists of the androgen receptor (AR) signaling pathway using the MDA cell line in the presence of 0.5 nM R1881 - cell viability counter screen (AID 1259242); further: nearly all actives have a fitted effect of over 45% in size; further: potency means the concentration at half of the fitted maximal effect
In short: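 Live-cell protease fluorescence, CellTiter-Fluor, 30 min at 37C. Cells: MDA-kb2, 3,000/well, preincubated 5 hr. Compounds plus 0.5 nM R1881 final, 16 hr, 37C, 0% CO2.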

[14] = qHTS assay to identify small molecule HDAC inhibitors (AID 1259364); conditions: HCT-116 HDAC-Glo I/II luminescence, 2 h; at 92.4 µM (top of the series) unless noted;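 further: wild-type HCT-116 cells with endogenous class I/II HDAC activity; top concentration of the series differs between compounds; nearly all actives have a fitted effect of over 45% in size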
In short: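 HCT-116 (wild type), 1,500 cells/well, overnight; compound 2 hr 37C 5% CO2; HDAC-Glo I/II reagent 30 min RT; luminescence readout.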

[15] = qHTS assay to identify small molecule HDAC inhibitors - cell viability counter screen (AID 1259365); conditions: HCT-116 viability, CellTiter-Glo ATP luminescence, 2 h; at 92.4 µM (top of the series) unless noted; further: nearly all actives have a fitted effect of over 50% in size
In short: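 After overnight seeding at 1,500 cells per well, wild-type HCT-116 cultures took up compounds in DMSO for 2hr at 37 C. Viable cell content came from luminescence with CellTiter-Glo.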

[16] = qHTS assay to identify small molecule agonists of the sonic hedgehog signaling (Shh) pathway (AID 1259368; calls by dose curve;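 further: NIH/3T3-derived 3T3Gli1-Luc cells carrying a stable Gli1-driven firefly luciferase reporter; nearly all actives have a fitted effect of over 15% in size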); conditions: NIH/3T3 Gli1-Luc reporter, luciferase, 24 h, stronger effect = higher value; at 92.4 µM (top of the series) unless noted
In short: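 Read-out: firefly luciferase luminescence from a Gli1 response element reporter stably integrated in NIH/3T3-derived 3T3Gli1-Luc cells, measured 30 min at room temperature after reagent addition. Compound exposure lasted 24 hr at 37 C, 5% CO2.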

[17] = qHTS assay to identify small molecule agonists of the sonic hedgehog signaling (Shh) pathway - cell viability counter screen (AID 1259366); conditions: NIH/3T3 Gli1-Luc viability, CellTiter-Fluor, 24 h; at 92.4 µM (top of the series) unless noted; further: nearly all actives have a fitted effect of over 50% in size
In short: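 Same-well cytotoxicity read. Gli1-Luc reporter 3T3 cells; compounds 24hr, 37C/5% CO2; CellTiter-Fluor fluorescence.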

[18] = qHTS assay to identify small molecule antagonists of the sonic hedgehog signaling (Shh) pathway - cell viability counter screen (AID 1259367); conditions: NIH/3T3 Gli1-Luc viability, CellTiter-Fluor, 24 h; at 92.4 µM (top of the series) unless noted; further: nearly all actives have a fitted effect of over 55% in size
In short: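 Tox21 library chemicals were tested on a Gli1-Luc NIH/3T3 clone (2,000 cells/well) stimulated by conditioned medium; viability was quantified as fluorescence from CellTiter-Fluor reagent added at 23 hr.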

[19] = target: Androgen receptor (Homo sapiens) (UniProt P10275); experiment: qHTS assay to identify small molecule antagonists of the androgen receptor (AR) signaling pathway using the MDA cell line in the presence of 0.5 nM R1881 (AID 1259243); conditions: MDA-kb2 MMTV-luciferase, R1881 0.5 nM, 16 h; at 92.4 µM (top of the series) unless noted; further: nearly all actives have a fitted effect of over 50% in size
[20] = target: Estrogen receptor (Homo sapiens) (UniProt P03372); experiment: qHTS assay to identify small molecule antagonists of the estrogen receptor alpha (ER-alpha) signaling pathway using the BG1 cell line in the presence of 0.1 nM 17-beta-estradiol (AID 1259244); conditions: VM7Luc4E2 (BG1) ERE-luciferase, antagonist mode, 0.1 nM E2, 22 h; at 92.4 µM (top of the series) unless noted; further: nearly all actives have a fitted effect of over 50% in size
On the % scale 0 is the no-effect control and ±100 the full control effect.

Compound | activity change, negative = cytotoxicity [1] | cytotoxicity increase [2] | cytotoxicity [3] | cytotoxicity increase [4] | cytotoxicity increase [5] | activity change, negative = cytotoxic [6] | activity change, negative = cytotoxicity [7] | activity change, negative = cytotoxicity [8] | activity change [9] | activity change, negative = cytotoxicity [10] | cytotoxicity increase [11] | activity change, negative = cytotoxicity [12] | Potency [13] | activity change, negative = inhibition [14] | activity change, negative = cytotoxicity [15] | activity change [16] | viability change, negative = cytotoxic [17] | viability change, negative = cytotoxic [18] | activity, negative = inhibition [19] | activity change, negative = inhibition [20]
O=[N+]([O-])c1ccccc1[N+](=O)[O-] | inactive: -4.7% and inactive: 1.71% | inactive: 0.273% and inactive: 1.63% | inactive: -5.2% and inactive: -1.6% | inactive: -0.496% and inactive: -10.1% | inactive: -2.11% and inactive: 28.1% | inactive: -0.282% and inactive: -0.109% | inactive: 8.25% | inactive: -11.2% and inactive: -2.67% | inactive: 0.411% and inactive: 6.83% | inactive: -0.0537% and inactive: 4.45% | inactive: -2.69% and inactive: 2.78% | inactive: -22.9% and inactive: -17.4% | active: 70.3 µM | inactive: -2.03% and inactive: -2.79% | inactive: -3.18% and inactive: -0.725% | inactive: 5.87% and inactive: -13.8% |  |  |  | 
CCOP(=O)(Cl)Cl | inactive: 5.67% and inactive: -2.82% | inactive: -10.2% and inactive: -13.5% | inactive: -1.22% and inactive: -0.241% | inactive: -9.18% and inactive: -9.55% | inactive: -12.6% and inactive: -8.47% | inactive: -0.116% and inactive: -0.105% | inactive: 12.2% | inactive: -2.58% and inactive: -19.3% | inactive: -12.1% and inactive: -13.9% | inactive: -10.9% and inactive: -10.1% | inactive: -8.05% and inactive: -8.02% | inactive: 5.46% and inactive: 4.6% | inactive | inactive: 3.29% and inactive: -1.42% | inactive: 1.7% and inactive: 2.46% | inactive: 7.18% and inactive: -0.759% | inactive: 2.36% | inactive: 2.05% and inactive: -0.548% |  | 
CCC(=O)N(c1ccccc1)C1CCNCC1 | inactive: -0.491% [at 35.3 µM] | inactive: -12.9% [at 35.3 µM] |  |  | inactive: -6.63% [at 35.3 µM] | inactive: 8.57% [at 35.3 µM] | inactive: 2.22% [at 35.3 µM] | inactive: 10.1% [at 35.3 µM] | inactive: -7.94% [at 35.3 µM] | inactive: 2.14% [at 35.3 µM] |  | inactive: -11.6% [at 42.5 µM] | inactive | inactive: 3.73% [at 42.5 µM] | inactive: 1.45% [at 42.5 µM] | inactive: 0.866% [at 42.5 µM] | inactive: -0.339% [at 42.5 µM] | inactive: 1.64% [at 42.5 µM] | inactive: -11.2% [at 42.5 µM] | inactive: -0.736% [at 42.5 µM]
ClCCNCCCl | inactive: 10.9% | inactive: 1.8% | inactive: -8.52% | inactive: -13.5% | inactive: -1.43% | inactive: -12.4% | inactive: -6.11% | inactive: 11.2% | inactive: -0.493% | inactive: -21.9% | inactive: -18% | inactive: 6.48% | inactive | inactive: 3.46% | inactive: 0.185% | inactive: -1.8% | inactive: -2.47% | inactive: -4.58% | inactive: -1.14% | inactive: -0.186%
